Values of other authors in patent US9394350B2, “HLA-A2 tumor associated antigen peptides and compositions” (OSE PHARMA INTERNATIONAL SA, priority 2003, dated 2016).

Experiments:
[1] = system: PBMC obtained from healthy donors and cancer patients; conditions: primary in vitro induction in healthy donors and recall responses in cancer patients; cited from earlier work
[2] = system: patients with metastatic melanoma; conditions: 1 mg peptide in Montanide ISA 51 with IL-2 therapy, versus historical IL-2 therapy alone; cited from earlier work

Row | Substance | specific CTL responses using PBMC [1] | clinical response rate [2] [%]
1 | HER-2/neu.369: wild-type version of analog HER-2/neu.369V2V9 used in EP-2101 | induced specific CTL responses | 
2 | IL-2: Interleukin-2; IL-2 therapy alone, historical comparison |  | 15
